Test results taken from PubChem BioAssay AID646 (Vanderbilt High Throughput Screening Facility, 2007).
The list shows a part of the results, in another mix than the full data. Activity calls are given as the source filed them. No stated cut-off is given here; in the data, active means luminescence above about 3900; inactive means the rest.

By UniProt entry, the sequences of proteins in these tests, tags left out.
UniProt P21728, whole entry: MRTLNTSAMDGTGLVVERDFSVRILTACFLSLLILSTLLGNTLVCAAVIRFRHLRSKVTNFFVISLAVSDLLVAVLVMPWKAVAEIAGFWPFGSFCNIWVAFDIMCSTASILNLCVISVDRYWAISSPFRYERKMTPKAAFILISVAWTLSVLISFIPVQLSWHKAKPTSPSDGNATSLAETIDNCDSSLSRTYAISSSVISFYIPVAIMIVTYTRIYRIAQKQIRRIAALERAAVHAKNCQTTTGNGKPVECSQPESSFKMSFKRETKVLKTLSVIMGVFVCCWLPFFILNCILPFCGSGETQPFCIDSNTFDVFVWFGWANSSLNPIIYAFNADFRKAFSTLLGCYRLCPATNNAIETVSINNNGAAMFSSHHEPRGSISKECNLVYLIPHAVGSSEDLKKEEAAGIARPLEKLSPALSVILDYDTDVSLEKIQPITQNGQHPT

Each compound was assayed against D(1A) dopamine receptor (Homo sapiens) (UniProt P21728) (assay: D1 receptor agonism without dopamine, confirmation, mechanism study for D1 allosteric modulator project, cell-based, HEK293 D1, CRE-luciferase, secondary assay 1 (AID 646)). Settings: no dopamine, at 10 µM, hits give high values.

SMILES | luminescence
Cc1nc2ccc3ccccc3c2s1.O=[N+]([O-])c1cc([N+](=O)[O-])c(O)c([N+](=O)[O-])c1 | inactive: 1320
